Test results from ChEMBL document CHEMBL5331109, “Design and Pharmacological Chaperone Effects of N-(4'-Phenylbutyl)-DAB Derivatives Targeting the Lipophilic Pocket of Lysosomal Acid α-Glucosidase” (J Med Chem, 2023).

System: Lysosomal alpha-glucosidase (Homo sapiens), P10253 [M519V]
Assay: Induction of GAA M519V mutant activity in Pompe patient fibroblast cells assessed as fold increase in intracellular activity using 4- methylumbelliferyl-alpha-D-glucopyranoside measured after 7 days at 50 uM relative to control
Format: cell-based
Conditions: time 7.0 day

- fold change (FC): 9.8
SMILES: CCCCN1C[C@@H](O)[C@H](O)[C@H]1CO
